As usually defined, the IC50 is the concentration that gives 50% inhibition.

This assay concerns the target T1, cAMP and cAMP-inhibited cGMP 3',5'-cyclic phosphodiesterase 10A (Rattus norvegicus, UniProt Q9QYJ6).
T1 sequence (Q9QYJ6 whole entry): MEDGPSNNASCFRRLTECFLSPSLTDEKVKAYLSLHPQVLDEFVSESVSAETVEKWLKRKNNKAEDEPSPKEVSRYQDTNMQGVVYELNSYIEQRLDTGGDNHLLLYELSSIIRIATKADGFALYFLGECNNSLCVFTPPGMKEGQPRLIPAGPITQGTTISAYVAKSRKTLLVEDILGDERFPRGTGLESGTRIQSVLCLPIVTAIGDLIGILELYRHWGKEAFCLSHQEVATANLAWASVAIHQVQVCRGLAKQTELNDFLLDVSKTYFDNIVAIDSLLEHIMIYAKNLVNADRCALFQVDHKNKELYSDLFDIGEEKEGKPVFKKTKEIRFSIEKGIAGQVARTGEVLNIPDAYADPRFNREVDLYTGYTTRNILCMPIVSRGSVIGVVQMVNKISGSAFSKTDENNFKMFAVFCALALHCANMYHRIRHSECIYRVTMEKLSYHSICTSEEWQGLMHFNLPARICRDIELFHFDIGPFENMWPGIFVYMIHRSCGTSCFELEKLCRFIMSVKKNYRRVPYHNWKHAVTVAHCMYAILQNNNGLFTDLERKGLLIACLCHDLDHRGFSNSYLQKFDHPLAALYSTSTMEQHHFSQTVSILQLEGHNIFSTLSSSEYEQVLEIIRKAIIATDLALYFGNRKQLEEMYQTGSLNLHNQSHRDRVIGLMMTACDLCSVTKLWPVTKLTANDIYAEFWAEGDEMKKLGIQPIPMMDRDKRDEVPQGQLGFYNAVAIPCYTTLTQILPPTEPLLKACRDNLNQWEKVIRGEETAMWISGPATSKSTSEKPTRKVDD
Kind of assay: Enzyme Inhibition Assay: Enzyme activity: An IMAP TR-FRET assay was used to analyze the enzyme activity (Molecular Devices Corp., Sunnyvale, Calif). Background: TR-FRET usually uses a lanthanide donor and a delayed reading to cut background.
For the compound `c1ccc2nc(N3CC(Oc4nccnc4N4CC5CCC4C5)C3)ccc2c1` (centres undefined), 0.109 µM corresponded to half-maximal inhibition (IC50). This counts as sub-micromolar.

`Oc1ccc(N2CCC(Oc3ncccc3C3CCOCC3)CC2)nc1` had an IC50 of 1.1 µM. Compared with the last compound, the IC50 is about 10-fold higher. In the case of `Cc1cccnc1N1CCC(Oc2nccnc2C2CCOCC2)CC1`, the half-inhibitory concentration (IC50) was found to be 1.72 µM.

In turn, `OCC1CCN(c2nccnc2OC2CN(c3ccc4ccccc4n3)C2)C1` (centres undefined) had an IC50 of 0.0434 µM.

The record behind these values is ChEMBL document CHEMBL3639166, “Heteroaryloxyheterocyclyl compounds as PDE10 inhibitors” (2013).
